{"source": "patent US8993349B2", "about": "“Method for enhancing transport of semiconductor nanocrystals across biological membranes” (Life Technologies Corporation, priority 2000, dated 2015)", "tested_on": "SKBR3 cells", "experiment": "Herceptin antibody immunostaining of SCNC-encoded SKBR3 cells", "assay_type": "cell-based", "conditions": "SKBR3 cells encoded with green (530 nm) SCNCs vs unencoded; fluorescence microscopy", "method": "SKBR3 cells were seeded into an 8-well chamber slide at a density of 80,000 cells per well and encoded with green (530 nm) SCNCs using the cationic lipid BioPorter as described in Example 3. Encoded or unencoded cells were incubated overnight at 37° C., 5% CO2. Cells were washed three times with PBS, and fixed in the presence of 3.7% formaldehyde for 10 minutes. The cells were washed 3 times with PBS, and incubated in the presence of PBS/1% bovine serum albumin (BSA) at room temperature for 30 minutes to minimize non-specific binding.\nThe cells in each well were incubated with 5 µg/ml herceptin antibody in PBS/1% BSA in a total volume of 150 1 for 30 min at room temperature. The cells were washed five times with PBS, and incubated with a 1:500 dilution of biotinylated goat anti-human IgG (Vector Laboratories, 1.5 mg/ml) for 30 minutes. The cells were washed again with PBS and incubated with a 1:400 dilution of streptavidin-conjugated Cy3 (Amersham, 1 mg/ml) for 30 minutes. The cells were washed again with PBS and the slide was mounted using 50% glycerol in PBS. The cells were imaged using a Nikon fluorescence microscope equipped with a Cy3 and green SCNC filter set. Control experiments indicate that binding of herceptin is unaffected by the SCNC code."}
{"substance": "herceptin: herceptin antibody used to immunostain SKBR3 breast cancer cells", "values": [{"measurement": "binding of herceptin, effect of SCNC encoding process or intracellular SCNC", "result": "unaffected"}]}
